In US20260382772A1, “KETO-AMIDE-BASED FIBROBLAST ACTIVATION PROTEIN-TARGETED LIGAND LINKED TO AN IMAGING OR THERAPEUTIC AGENT, COMPOSITIONS, AND METHODS OF USE” (published 2026):

Legend:
[1] = test system: MDA-MB-231 tumor bearing mice; assay: Toxicology (H&E histopathology) in MDA-MB-231 tumor-bearing mice; conditions: single dose 37 MBq
Text: (§1) Mice were weighed every other day during radiotherapy as a gross evaluation of health. Tissue sections from organs of interest (n=1-8 per organ per mouse) were preserved and examined blindly for lesions by a board-certified veterinary pathologist.
(§2) To assess toxicology in the MDA-MB-231 tumor-bearing mice treated with Lu-Conjugate 24′, 4 μm sections of mouse heart, liver, and kidney tissue samples were taken following radiotherapy treatments of a single dose of [^177Lu] Lu-FAP8-PEG3-IP-DOTA (Lu-Conjugate 24′) and 37 MBq radiotherapy in athymic nu/nu mice bearing MDA-MB-231 tumors. 1.0 mCi was used for the treatment. The tissue samples were stained with H&E and representative photomicrographs were taken (FIG. 48; Table 14).

[2] = test system: HT29 tumor bearing mice; assay: Toxicology (H&E histopathology) in HT29 tumor-bearing mice; conditions: single dose 37 MBq
Text: as §1
as §2, with “HT29” for “MDA-MB-231”, “47;” for “48;”, “13).” for “14).”

[3] = test system: MDA-MB-231, KB, and HT29 cancers in tumor-bearing mice; assay: Radiotherapy efficacy in tumor-bearing mice; conditions: 37 MBq single intravenous dose, FIG. 37
Protocol: Efficacy studies were conducted on mice expressing tumors from various cell lines. Briefly, Balb/c mice were inoculated on their shoulders with 1×10^5 cells of 4T1 cells, whereas nu/nu mice were inoculated on their shoulders with 5×10^6 cells of HT29 (a human colorectal adenocarcinoma cell line), KB (tumor cell line HeLa), MDA-MB-231 (a human breast cancer cell line), or HEK-FAP cells.
4T1, HT29, KB, and MDA-MB231 tumor-bearing mice were randomly divided into control and treatment groups (n=5/group) to ensure similar starting tumor volumes. Each cohort received a single intravenous injection of saline or with 37 MBq/mouse of [^177Lu] Lu-FAP8-PEG3-IP-DOTA conjugate (Lu-Conjugate 24′) to HT29, KB and MDA-MB231 tumor-bearing mice and 37 MBq, 18.5 MBq and 9.25 MBq/mouse of [^177Lu] Lu-FAP8-PEG3-IP-DOTA (Lu-Conjugate 24′) to 4T1 tumor bearing mice on day 0.
Tumors were then measured with a caliper in two perpendicular directions every other day. Mice were euthanized upon reaching one of the predefined endpoint criteria according to IACUC regulations.
as §1

COc1ccc(CNC(=O)C(=O)[C@@H]2CC(F)(F)CN2C(=O)CNC(=O)c2ccnc3ccc(OCC(=O)NCCOCCOCCOCCNC(=O)[C@H](CCCCNC(=O)CCCc4ccc(I)cc4)NC(=O)CN4CCN(CC(=O)O)CCN(CC(=O)O)CCN(CC(=O)O)CC4)cc23)cc1OC.[Lu+3]
Heart histopathology ([1]; individual treated mice M6-M10): NDL | Kidneys histopathology ([1]; individual treated mice M6-M10): NDL | Lungs histopathology ([1]; individual treated mice M6-M10): NDL | mice with histopathologic lesions consistent with necrosis and active inflammation ([1]; mice #8 and #9, liver): 2 of the 5 | histopathologic findings, treated vs untreated mice [2]: no significant difference in histopathologic findings between treated and untreated mice | Liver histopathology ([2]; individual treated mice M6-M10): NDL | Lungs histopathology ([2]; individual treated mice M6-M10): NDL | weight [3]: did not adversely affect the subject's weight | tumor growth and overall survival ([3]; vs control groups): positive effect on both tumor growth and overall survival in all cell lines as compared to the control groups
